IC50 data for 3 compounds are collected here from ChEMBL document CHEMBL1129498, “Azole endothelin antagonists. 2. Structure-activity studies” (J Med Chem, 1996).

By UniProt entry, the sequences of proteins in these tests, tags left out.
UniProt P26684, whole entry: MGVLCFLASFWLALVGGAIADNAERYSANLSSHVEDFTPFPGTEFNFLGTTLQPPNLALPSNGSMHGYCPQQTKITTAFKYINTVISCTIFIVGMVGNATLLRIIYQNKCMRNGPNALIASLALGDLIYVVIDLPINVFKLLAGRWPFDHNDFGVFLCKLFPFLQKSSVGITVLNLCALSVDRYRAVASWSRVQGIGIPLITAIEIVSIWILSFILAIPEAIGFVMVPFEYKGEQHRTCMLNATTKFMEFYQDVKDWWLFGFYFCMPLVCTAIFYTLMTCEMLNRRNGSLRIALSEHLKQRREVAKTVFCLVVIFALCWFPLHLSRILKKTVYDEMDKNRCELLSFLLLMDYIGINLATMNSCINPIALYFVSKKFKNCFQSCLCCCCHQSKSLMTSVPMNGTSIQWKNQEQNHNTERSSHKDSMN

For the experiment, the target named is Endothelin-1 receptor (Rattus norvegicus, UniProt P26684). Put plainly: Inhibitory activity was evaluated against ET- A Binding to Endothelin A receptor in MMQ cell homogenates. The experiment is classed as cell-free.

Usually IC50 stands for the midpoint of a concentration-inhibition curve. A high value points to lower potency. Turning to `Cc1c(C(=O)O)nc([C@@H](Cc2c[nH]c3ccccc23)NC(=O)[C@H](CC(C)C)NC(=O)N2CCCCCC2)n1Cc1ccccc1`, the IC50 is 16.2 µM. That is a double-digit micromolar value. `Cc1c(C(=O)O)nc([C@@H](Cc2c[nH]c3ccccc23)NC(=O)[C@H](CC(C)C)NC(=O)N2CCCCCC2)n1C` came in with an IC50 of 23.3 µM. The IC50 values of the last two compounds are within 1.5-fold of each other. With `Cc1[nH]c([C@@H](Cc2cn(C)c3ccccc23)NC(=O)[C@H](CC(C)C)NC(=O)N2CCCCCC2)nc1C(=O)O` the figure was 0.28 µM.
